Compound activity (PubChem BioAssay)
Rows were chosen to be rich in hits. Some 2.1% of all compounds tested hit in one or more screens of this group.
TRPM1 prom inh = reduces MITF-dependent TRPM1 promoter luciferase signal; SK-MEL-5 TRPM1 promoter luciferase, 24 h; inhibition, % at 12.5 µM; 0.83% of 330,000 active; AID 488899;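 active = mean inhibition across replicates of 60% or more, whatever share of single replicates reaches that level; inconclusive = some that reach 60%, reason not given; inactive = mean inhibition across replicates below 60%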
MITF act = activators of MITF-driven TRPM1 promoter activity in SK-MEL-5 cells; SK-MEL-5 TRPM1-promoter luciferase, 24 h; % of positive control, neutral wells = 0; activation, % at 12.5 µM; 0.75% of 300,000 active;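 active = mean activation of at least 80% with every replicate also reaching 80%; inconclusive = mean reaches 80% but some replicate falls short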
UUG fidelity = modulators of start codon recognition fidelity in yeast | S. cerevisiae UUG-firefly luciferase reporter, luminescence/redox ratio | activity score, % at 18.7 µM | 350,000 tested, 0.13% active;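 active = replicate mean at a twofold rise or more, about +100% in these data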;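 also: firefly luciferase made from a UUG start codon reports start codon fidelity; reporter light over untreated wells divided by growth signal over untreated wells; some hits fall short of that in this replicate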
Wnt bcat act = activators of Wnt/beta-catenin signaling. Wnt/beta-catenin reporter cell assay, activator, plate reader. activation, % at 9.35 µM. 1.2% of 300,000 active. AID 743398; in the data active = activation above about 30%, passing the limit was not always enough; inconclusive = no clear call, values can overlap the other calls
miR-122 sensor = miR-122 inhibition in Huh7 cells; Huh7 miR-122 Renilla luciferase sensor, 48 h; neutral wells = 0, positive control = 100; activation (reporter increase), % at 12.5 µM; 0.3% of 340,000 active;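 active = mean replicate activation score at least 90 and every replicate individually at or above 90; inconclusive = only one of the two criteria met; inactive = neither criterion met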;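 note: higher luciferase means less miR-122 activity so hits act as miR-122 inhibitors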
PGC1a acetyl inh = lowers PGC1a acetylation signal in U2OS cells; 0.17% of 350,000 active; inhibition, % at 15.6 µM; AlphaScreen anti-acetyl-lysine; with virally co-expressed GCN5 acetyltransferase; AID 651687;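 active = every replicate shows inhibition of at least 40%; inconclusive = mean inhibition at least 40% but some replicate below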
Numbers stand for hits; . = inactive; ? = inconclusive; / = no result.

SMILES	TRPM1 prom inh	MITF act	UUG fidelity	Wnt bcat act	miR-122 sensor	PGC1a acetyl inh
O=C(Nc1ccccc1)N1CCc2ccccc2C1	.	.	.	54.2	.	.
O=C(CNc1cccc(F)c1)N1CCc2ccccc2C1	.	?	.	36.0	.	.
COc1ccc(/C=C/c2cc(-c3ccc(C)cc3)o[n+]2C)cc1	88.4	.	.	/	.	.
C[C@@H]1CN([C@H](C)CO)S(=O)(=O)c2ccc(C#CC3CCCCC3)cc2O[C@@H]1CN(C)C(=O)Cc1ccncc1	/	/	.	/	.	.
COc1ccc(C(=O)Nc2cc3c4c(c2)CC(=O)N4CCC3)cc1	.	.	.	.	/	/
COc1ccc(C(=O)Nc2cccc3c2CCCC3)c(OC)c1	/	/	.	36.4	.	.
COc1ccc(C(=O)Nc2cc3c4c(c2)CC(=O)N4CCC3)c(OC)c1	.	86.5	.	/	.	/
C[C@H]1CN([C@@H](C)CO)C(=O)Cc2cc(NC(=O)C3CCCCC3)ccc2O[C@H]1CN(C)Cc1ccccc1	/	/	.	/	.	.
Cc1ccc(-c2n[nH]c(=S)n2/N=C/c2cccn2C)cc1	.	.	/	/	.	50.0
C[C@H]1CCCCO[C@@H](CN(C)C(=O)Cc2ccccc2)[C@@H](C)CN([C@@H](C)CO)C(=O)c2cc(NS(=O)(=O)c3cccs3)ccc2O1	/	/	.	/	.	.
CC(Oc1ccc(Cl)cc1)c1ccnn1S(=O)(=O)c1ccc(Cl)cc1 (stereo not given)	.	/	.	.	110.8	/
COc1ccc2c3c(n(C)c2c1)[C@@H](CO)N(Cc1ccncc1)CC31CCN(C(=O)NC(C)C)CC1	/	/	/	/	/	.
C[C@H](CO)N1C[C@H](C)[C@H](CN(C)C(=O)Nc2ccccc2)Oc2ccc(NS(=O)(=O)c3ccccc3)cc2C1=O	/	/	.	/	.	.
Fc1ccc2cc(-c3ccsc3)ncc2c1	.	.	.	36.3	.	.
c1cc(-c2cc3cc4c(cc3cn2)OCO4)cs1	.	?	.	49.7	.	/
CCn1c(SC(C)C(=O)NC2CCCC2)nc2cc(S(N)(=O)=O)ccc21 (stereo not given)	.	.	.	47.6	.	.
COc1ccc(-c2nn(-c3ccccc3)cc2C#N)cc1	.	104.6	.	/	.	.
COc1ccc(-c2nn(-c3ccccc3)cc2C(=O)O)cc1	.	.	.	.	.	.
CCOC(=O)C(=CNc1nc2ccc(C(=O)OCC)cc2s1)C(=O)OCC	/	/	.	.	.	.
CCOC(=O)c1ccc2nc(Nc3nc4ccc(F)cc4s3)sc2c1	96.4	.	/	.	/	/
COC(=O)c1ccc2nc(Nc3nc4c(F)cc(F)cc4s3)sc2c1	94.8	.	/	.	/	/
CCOC(=O)c1ccc2nc(NC(C)=O)sc2c1	.	.	/	45.7	.	.
O=C(C[C@H]1CC[C@@H]2[C@H](COC[C@H](O)CN2C(=O)Cc2ccccc2)O1)NC1Cc2ccccc2C1	/	/	/	/	.	.
COc1cccc(-n2nc(C#N)c(Cl)cc2=O)c1	90.6	.	/	.	/	.
CCCNC(=O)[C@H]1[C@H](CO)[C@H]2Cn3c(cccc3=O)[C@H]2N1CC1CCCC1	/	/	/	/	/	.
SMILES	TRPM1 prom inh	MITF act	UUG fidelity	Wnt bcat act	miR-122 sensor	PGC1a acetyl inh
C[C@@H]1CN([C@H](C)CO)S(=O)(=O)c2ccc(C#C[C@@H](C)O)cc2O[C@H]1CN(C)C(=O)C1CC1	/	/	.	/	.	.
CCc1nc2ccc(C(=O)N3CCN(C(=O)c4ccco4)CC3)cn2c1N(C)C(=O)COc1ccccc1	/	/	.	.	96.7	.
O=C(Nc1ccccc1)OCC1CCCN2CCCCC12 (stereo not given)	.	.	.	.	.	.
CC1=CCC(COC(=O)Nc2ccccc2)CC1 (stereo not given)	.	125.5	.	.	.	.
Cc1occc1C(=O)N/N=C/C(Br)=C\c1ccccc1	.	/	.	58.4	.	.
O=C(N/N=C/C(Br)=C\c1ccccc1)c1cccs1	/	/	.	125.8	.	.
Cc1occc1C(=O)N/N=C/C=C/c1ccccc1	.	?	/	.	/	/
O=C(N/N=C/c1cccc(OCc2ccccc2)c1)c1cccs1	.	/	.	38.6	.	.
O=C(C[C@@H]1C[C@H]2c3cc(NC(=O)c4ccc5c(c4)OCO5)ccc3O[C@H]2[C@H](CO)O1)NCc1cccc(F)c1	/	/	.	/	.	.
C[C@@H]1CN([C@@H](C)CO)C(=O)c2cc(NC(=O)CCC(F)(F)F)ccc2O[C@H]1CN(C)Cc1ccc(Oc2ccccc2)cc1	/	/	.	/	.	.
COCC(=O)Nc1ccc2c(c1)C(=O)N(C)C[C@@H](OC)[C@@H](C)CN(C(=O)CC1CC1)[C@H](C)CO2	/	/	.	/	.	.
CC1CC2(C)Oc3ccccc3CC2C(C)C1CNCCCN(C)C (stereo not given)	97.2	.	/	.	/	/
CC1Cc2ccccc2N1C(=O)CNCCCN(C)C (stereo not given)	.	.	.	/	.	.
O=C(O)c1ccc(N/N=C/C2=Cc3ccccc3OC2)cc1	.	137.7	.	41.1	.	.
O=c1c2ccccc2sc2ccc(NCCCN3CCOCC3)cc12	.	.	.	.	/	/
CN1CCCC1CCNc1ccc2sc3ccccc3c(=O)c2c1 (stereo not given)	.	108.3	.	.	.	/
COc1ccc(S(=O)(=O)N[C@H]2CC[C@@H](CC(=O)NCc3ccccc3F)O[C@@H]2CO)cc1	/	/	.	/	/	.
N#C[C@H]1[C@H](c2ccc(-c3ccccc3)cc2)[C@H](CO)N1C(=O)Cc1ccncc1	/	/	.	/	/	.
N#C[C@@H]1[C@@H](c2ccc(-c3ccccc3)cc2)[C@@H](CO)N1C(=O)Cc1ccncc1	/	/	.	/	/	63.3
CO[C@@H]1CN(C)C(=O)c2ccc(NS(C)(=O)=O)cc2OC[C@@H](C)N(CC2CCOCC2)C[C@@H]1C	/	/	.	/	.	.
Cc1nc(-c2ccc(NC(=O)CC(C)C)cc2)cs1	.	92.1	/	37.2	/	/
COc1ccc(-c2csc(NC(=O)CC(C)C)n2)cc1	.	.	.	53.2	.	.
COc1ccc(-c2ccc(SCC(=O)Nc3nnc(C)s3)nn2)cc1	.	.	/	35.3	/	.
CC(C)C(=O)Nc1ccc(-c2csc(-c3ccccc3)n2)cc1	.	138.9	.	/	.	.
CCC(=O)N(Cc1ccco1)c1nc(-c2ccc(OC)cc2)cs1	.	.	.	/	/	/
SMILES	TRPM1 prom inh	MITF act	UUG fidelity	Wnt bcat act	miR-122 sensor	PGC1a acetyl inh
CCC(=O)N(CC)c1nc(-c2ccc(OC)cc2)cs1	.	.	.	.	.	47.8
[O-]/[N+](=C\c1ccccc1)c1ccc(Br)cc1	.	.	.	32.2	.	.
[O-]/[N+](=C\c1ccccc1)c1ccccc1	.	.	.	.	/	/
COc1ccc(/C=C2\SC(=S)N(CCCC(=O)NNC(=O)c3ccccc3O)C2=O)cc1	92.1	.	/	.	.	.
COc1ccc(/C=C2/SC(=S)N(CCCC(=O)Nc3ccccc3C(=O)O)C2=O)cc1	.	/	.	.	.	/
O=C(CCN1C(=O)/C(=C/c2ccccc2)SC1=S)NCCCN1CCOCC1	.	.	.	.	.	56.4
Cc1ccc(/C=C2\SC(=S)N(CCCC(=O)Nc3ccccn3)C2=O)cc1	79.3	.	/	/	.	.
